From PubChem BioAssay AID493162 (ICCB-Longwood Screening Facility, Harvard Medical School, 2011)
Only a part is listed here, and it is no random draw. Calls of active or inactive are those of the source. Cut-off read from the data, not from the text of the source: active = normalized absorbance mostly below about 85% (no sharp cut-off); inactive = mostly above about 86%.

What follows are compounds tested on Vaccinia virus DNA polymerase (E9) processive complex (assay: vaccinia E9 polymerase processive synthesis inhibitors, primary screen, biochemical, absorbance (AID 493162)). Settings: in vitro processive DNA synthesis, absorbance read-out; hits give low values; concentration not given here.
`CN(CCCl)CCCl` was tested, and the normalized absorbance was inactive: 99.3%.
